# Apparent affinities of Ab-14 variants for a coronavirus HR2 peptide

Source: Engelhart et al. 2022 (doi:10.1038/s41597-022-01779-4), MIT Lincoln Laboratory and A-Alpha Bio; data file from the FLAb repository.

Binding partner: SARS-CoV-2 spike HR2 peptide, sequence PDVDLGDISGINAS.

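The starting antibody came from a phage panning campaign against this peptide. Library AAYL49 holds single substitutions and randomly drawn double and triple substitutions in the CDRs. In AlphaSeq, yeast of one mating type display the scFv and yeast of the other type display the target. Mating (16 h, 30 °C) was followed by selection of diploids and sequencing of their barcodes. Read counts were normalised to the haploid input and turned into Kd by a linear fit to BCL2-family pairs of known affinity, for each replicate. There are three technical replicates.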

Each scFv is VH, a (GGGGS)3 linker, VL, as in the parent Ab-14, and differs from it in the CDRs of the heavy chain only.
VH: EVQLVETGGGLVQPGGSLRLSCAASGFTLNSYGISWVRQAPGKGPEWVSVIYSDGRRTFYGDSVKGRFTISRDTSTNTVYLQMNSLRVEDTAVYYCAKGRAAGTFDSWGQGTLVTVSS
VL: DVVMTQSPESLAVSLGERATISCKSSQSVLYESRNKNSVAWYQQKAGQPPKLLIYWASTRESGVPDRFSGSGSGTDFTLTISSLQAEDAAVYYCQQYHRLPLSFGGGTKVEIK

Substitutions are numbered in sequence along the VH above, starting at 1 (not Kabat).
The Kd shown is the geometric mean over detected replicates; a lower Kd is a better binder.
"no signal" marks a missing value. The strain was present, yet no cells mated with the target were sequenced in any replicate, which points to weak or no binding.
For reference, the parent read 4.4 nM as the reference entry and 13 µM (one replicate of three) as a member of this library.
Nonspecific signal, from three strains lacking the peptide, appeared in 15% of pairings of library AAYL49, centred on 11 µM (5% of these signals below 680 nM); values are not corrected for it. Also given: how often the same scFv was detected with the empty control strains.

| changes | apparent Kd | detected | control signals |
|---|---|---|---|
| T28P/S53F/S63E | 57 nM | 3 of 3 | 3 of 9 |
| F27S/L29V/D106C | no signal | 0 of 3 | 1 of 9 |
| S53N/V64A/K65D | 3.4 µM | 2 of 3 | 1 of 9 |
| G26T/F27M/V64K | 26 µM | 2 of 3 | 1 of 9 |
| D62R/V64S/F105E | no signal | 0 of 3 | 0 of 9 |
| N30E/G33R/D54M | no signal | 0 of 3 | 0 of 9 |
| D54E/R57H/S107N | 1.5 µM | 1 of 3 | 0 of 9 |
| S35M/V50I/A102S | no signal | 0 of 3 | 2 of 9 |
| L29R/Y52W/D106Q | 560 µM | 2 of 3 | 1 of 9 |
| G33W/R57T/F59L | no signal | 0 of 3 | 0 of 9 |
| F27I/N30S/A101T | 17 nM | 3 of 3 | 6 of 9 |
| S53I/S63K | no signal | 0 of 3 | 0 of 9 |
| V50P/F59Q/D106E | no signal | 0 of 3 | 1 of 9 |
| Y32R/I34D/I51Q | no signal | 0 of 3 | 1 of 9 |
| G33I/T58N/A101C | 5.8 µM | 1 of 3 | 2 of 9 |
| T58W/G61R/R100E | 43 µM | 1 of 3 | 2 of 9 |
| T28M/V50D/D54A | 590 nM | 1 of 3 | 1 of 9 |
| S31T/G103L/S107L | no signal | 0 of 3 | 3 of 9 |
| G55K/T58F/S107C | no signal | 0 of 3 | 1 of 9 |
| L29W/R100W | 7.3 µM | 1 of 3 | 2 of 9 |
| G26V/T28L/G61M | 15 µM | 2 of 3 | 3 of 9 |
| G26C/D62E/A101L | 3.0 µM | 2 of 3 | 0 of 9 |
| S31K/K65L/F105I | 15 nM | 3 of 3 | 6 of 9 |
| T28A/L29T/R100P | 100 µM | 3 of 3 | 5 of 9 |
| S31L/T58V/D62E | 310 nM | 3 of 3 | 1 of 9 |
| S53H/G55A/T58C | 65 µM | 2 of 3 | 4 of 9 |
| I34V/G55M/G99C | 32 µM | 1 of 3 | 3 of 9 |
| L29K/G33W/D62I | 3.4 µM | 1 of 3 | 0 of 9 |
| L29T/F59S/A102G | no signal | 0 of 3 | 0 of 9 |
| N30F/V50R/T104Q | 470 µM | 1 of 3 | 0 of 9 |
| I51K/R57S/V64W | no signal | 0 of 3 | 0 of 9 |
| S31G/R56F/G61E | 88 nM | 3 of 3 | 0 of 9 |

Second part, the sequence after the result:

| apparent Kd | detected | control signals | changes |
|---|---|---|---|
| 14 µM | 2 of 3 | 3 of 9 | G26I/T104R/D106F |
| no signal | 0 of 3 | 3 of 9 | I51R/Y60R/T104K |
| 2.2 µM | 1 of 3 | 1 of 9 | L29G/G33C/R57P |
| no signal | 0 of 3 | 2 of 9 | I34K/F105T/D106V |
| 160 nM | 3 of 3 | 6 of 9 | F59N/G61A/A102T |
| no signal | 0 of 3 | 0 of 9 | Y32I/R100I/D106N |
| 230 nM | 1 of 3 | 1 of 9 | S53V/T58Q/Y60A |
| 2.7 µM | 1 of 3 | 4 of 9 | G33E/R56H/F59K |
| 63 µM | 3 of 3 | 8 of 9 | S31E/T58P/R100L |
| 2.2 µM | 2 of 3 | 0 of 9 | L29C/S31D/I51M |
| no signal | 0 of 3 | 1 of 9 | R57M/G103A/F105S |
| 24 µM | 2 of 3 | 3 of 9 | I34S/T58H/A101K |
| 5.7 µM | 2 of 3 | 1 of 9 | G33M/R56M/S63G |
| 1.9 µM | 1 of 3 | 0 of 9 | G26Q/R100L |
| no signal | 0 of 3 | 0 of 9 | Y52Q/D54K/G61W |
| 370 nM | 1 of 3 | 0 of 9 | S31W/I34P/R56Y |
| 2.0 µM | 2 of 3 | 3 of 9 | F27R/Y32W/D54L |
| no signal | 0 of 3 | 0 of 9 | N30V/S53Y/T104E |
| no signal | 0 of 3 | 0 of 9 | R100N/A102P/T104Y |
| 8.3 µM | 1 of 3 | 2 of 9 | F27E/S53I/K65N |
| 1.4 µM | 1 of 3 | 0 of 9 | S53Q/V64Q/S107C |
| 290 nM | 3 of 3 | 3 of 9 | L29I/I51M/R57H |
| no signal | 0 of 3 | 2 of 9 | K65R/T104G/D106H |
| no signal | 0 of 3 | 2 of 9 | S35P/S53L/G99E |
| 140 µM | 2 of 3 | 4 of 9 | G33N/S35H/S107N |
| no signal | 0 of 3 | 0 of 9 | Y32P/G33S/S53F |
| no signal | 0 of 3 | 2 of 9 | R57S/G61E/S63R |
| 3.9 µM | 3 of 3 | 5 of 9 | S35A/V64S |
| no signal | 0 of 3 | 1 of 9 | I34L/D62E/G103Q |
| no signal | 0 of 3 | 0 of 9 | I51E/G61V/F105R |
| 4.0 nM | 3 of 3 | 1 of 9 | G99S/R100A/T104K |
| 220 nM | 1 of 3 | 0 of 9 | T28P/L29A/D106I |

The first 3 variants above that were never detected:

changes,apparent Kd,detected,control signals
F27S/L29V/D106C,no signal,0 of 3,1 of 9
D62R/V64S/F105E,no signal,0 of 3,0 of 9
N30E/G33R/D54M,no signal,0 of 3,0 of 9